Test results as given in US4766151A, “Ethers and oxime ethers of alkylamino alcohols as medicaments and novel products, and processes for their preparation” (Laboratoires, P.O.S., priority 1982, dated 1988).

Protein sequences, listed by entry. Tags and fused reporters are not part of them.
UniProt Q8K4Z4, whole entry: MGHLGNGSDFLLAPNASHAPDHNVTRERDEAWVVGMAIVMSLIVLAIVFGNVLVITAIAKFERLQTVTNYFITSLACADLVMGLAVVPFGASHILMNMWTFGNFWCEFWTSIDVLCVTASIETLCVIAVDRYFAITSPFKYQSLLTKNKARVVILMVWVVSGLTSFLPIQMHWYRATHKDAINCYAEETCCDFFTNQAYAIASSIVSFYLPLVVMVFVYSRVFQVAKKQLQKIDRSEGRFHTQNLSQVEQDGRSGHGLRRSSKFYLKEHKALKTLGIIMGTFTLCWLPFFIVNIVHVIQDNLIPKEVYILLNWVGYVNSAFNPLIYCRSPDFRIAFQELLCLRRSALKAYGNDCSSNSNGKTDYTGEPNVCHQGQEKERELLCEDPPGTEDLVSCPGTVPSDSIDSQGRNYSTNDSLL

Target: T1, isolated trachea of a guinea pig (Cavia porcellus, UniProt Q8K4Z4)
T1 construct: isolated trachea of a guinea pig; from tissue; host or cells: guinea pig isolated trachea
Assay: pA2 measurement of beta-blocking activity on the isolated trachea of a guinea pig
Assay type: cell-based
Protocol: The PA2 is the co-logarithm of the concentration of antagonist in the presence of which it requires twice as much agonist as in its absence in order to achieve the same effect; see, on this subject: Calculation of the PAx, Technical Leaflet No. 16, J. Pharmacol. Paris 1971, 2, 3, 373-380. The PA2 was measured on the isolated auricle of a guinea pig and on the isolated trachea of a guinea pig. The product used by way of comparison is the following compound: [drawing 23]

Trachea pA2: 8.67
SMILES: CC(C)(C)NCC(O)CON=C(C1CC1)C1CC1 (stereo not shown) [Compound No. 2, 1-N-tert.-Butylamino-3-(dicyclopropyl-ketoneoximino)-propan-2-ol]
